From article PMC6435034 (Circulation research, 2019)

Settings: mouse, in vivo

OC[C@H]1OC(O)[C@H](F)[C@@H](O)[C@@H]1O (stereo partly shown) [^18F-FDG, ^18F- Fluorodeoxyglucose]
Heart uptake among MI mice, sham-operated mice and naïve animals: comparable
